# Ab-14 heavy chain CDR variants: yeast mating affinities

Antigen: PDVDLGDISGINAS, a 14-residue peptide of the SARS-CoV-2 spike HR2 region.

Ab-14 is the parent antibody, in scFv form: VH, then the linker GGGGSGGGGSGGGGS, then VL. The light chain is unchanged in all variants.
VH: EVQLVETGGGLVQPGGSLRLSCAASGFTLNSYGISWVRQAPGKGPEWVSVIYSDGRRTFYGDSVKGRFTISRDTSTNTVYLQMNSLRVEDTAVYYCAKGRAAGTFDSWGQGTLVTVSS
VL: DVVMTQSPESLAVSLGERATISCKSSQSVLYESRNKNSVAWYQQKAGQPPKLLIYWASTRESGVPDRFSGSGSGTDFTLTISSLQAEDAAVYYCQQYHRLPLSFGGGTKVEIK

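The parent was found by panning a naive human phage display library on the peptide. Variants in AAYL49 differ from the parent at up to three CDR positions; double and triple changes were sampled at random. Affinity was read by AlphaSeq, a pooled yeast mating assay with surface-displayed partners. Pairs that bind mate more often; barcode pairs of the diploids are counted by sequencing. Each replicate has its own calibration line, from reference interactions of the BCL2 family. Each pool was mated in three replicate cultures.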

The parent's heavy chain CDRs are GFTLNSYGIS, VIYSDGRRTFYGDSVK, GRAAGTFDS; each variant's own CDRs replace them letter for letter. The read-out is the apparent dissociation constant on a log10 scale (nM): the lower, the stronger. An entry "nd" has no value in the source: the pair was not observed among the diploids in that replicate. This suggests poor binding but is not conclusive. Background: pairings of library AAYL49 with three empty control strains gave a value in 15% of cases (median 4.06, 5th percentile 2.83). Values in that range, when seen in few replicates, are hard to tell from nonspecific mating. The control count says in how many pairings with the empty strains this scFv gave a signal, with their mean in brackets. Parent in this assay: reference entry 0.65, copy in this library 4.11 (one replicate of three).

CDR-H1	CDR-H2	CDR-H3	log10 Kd, replicates	control signals
GFTLNSYGIS	VIYSDGVRTFYGDSNK	GGAAGTFDS	nd / nd / nd	0 of 9
WFTLNSYSIS	VIYSDGRRTFYGDSVK	GRASGTFDS	nd / nd / 3.99	0 of 9
GFTLASYGIS	VIYSDIRRTFYFDSVK	GRAAGTFDS	nd / nd / nd	0 of 9
GFTLNSYGII	VIYSDGRRTTYGDSVK	GEAAGTFDS	nd / 2.87 / nd	2 of 9 (4.24)
GFTLYSYGIS	VIYSDGRRNFRGDSVK	GRAAGTFDS	nd / nd / 4.95	0 of 9
HFTLNSYGIH	VIYSDGRRTFYGDSVK	GRNAGTFDS	0.35 / 0.59 / 0.40	2 of 9 (4.05)
EFTLNSYGIS	VSYSDGRRTFLGDSVK	GRAAGTFDS	nd / 3.11 / nd	0 of 9
GTTLNSYGIS	VIYSDGRRTFWGDSVY	GRAAGTFDS	nd / nd / nd	1 of 9 (4.26)
GFTLNSYGIS	VIYSDYRRTFYGDSVK	GRAAGTGDS	nd / nd / nd	0 of 9
GFTLNSYGIS	VIYSDERRTFYGRSVK	GRAAGTFDS	nd / nd / nd	1 of 9 (3.10)
GFTLNSYGIH	KIYSDGRRTFYGDSVK	GRAAGTFDL	nd / 4.23 / nd	3 of 9 (4.29)
WFTLNSYGIS	VMYSDGRRTFYGDSVK	GRAAYTFDS	nd / nd / nd	0 of 9
GFTLNSTGHS	VIYSDGRRTFYGDSVK	CRAAGTFDS	nd / nd / nd	0 of 9
FFTLNSYGIS	VIYSDIRRTFYGDSDK	GRAAGTFDS	nd / nd / nd	0 of 9
GFTLNSYLIS	VIYSDGRRSFYGDSVK	GRPAGTFDS	4.15 / 4.38 / 4.39	3 of 9 (3.61)
AFTLNSYGIS	CIYSDGYRTFYGDSVK	GRAAGTFDS	4.29 / 3.53 / 5.19	9 of 9 (4.45)
GFTLNSYYIS	VIYSDGRHTFYGDSVK	GRAAGTFDS	nd / 3.11 / nd	2 of 9 (2.85)
GETLNSWEIS	VIYSDGRRTFYGDSVK	GRAAGTFDS	nd / 5.38 / 4.20	0 of 9
GFTLESYGIS	VIYSDGRRTFYGDSVK	GRAAGNFVS	nd / 3.30 / nd	3 of 9 (4.05)
GFTINSYGIS	QIYSDGRRTFYGDSVK	GRAAMTFDS	nd / nd / nd	0 of 9
GFTLNSDGIS	VIYADGRRTFYGDSVK	GRAAGTFMS	nd / nd / nd	0 of 9
GFTDNSYGIS	VIYSDGRRTFYYDSVK	GRAFGTFDS	nd / nd / nd	0 of 9
GFFLNSYGIS	VNYSDGRRTFYGDSVK	GRAAGTFDW	6.41 / nd / 5.63	4 of 9 (4.42)
GFTLNSYKIS	FIYSDGRRTFYGDSVK	GRAAGTFDS	nd / nd / nd	0 of 9
GFTLNSYPIS	VFYSDGRRTFYGDSVK	GRAAGTFGS	nd / nd / nd	0 of 9
GITLNSYGAS	VIYSDGRRTFYGDSVK	GRAASTFDS	nd / nd / nd	0 of 9
GHTLNSYGIS	VIYSDGRRTGYGDSVK	GRAVGTFDS	6.15 / 5.63 / nd	4 of 9 (4.39)
GFTLNSYGLS	VIYSDGRRTFYGDSRK	GRAAGTFDS	5.35 / nd / nd	2 of 9 (4.22)
GFTLKSYGIS	VIYFDGRRTFYGDSVK	GRAAGTFDS	3.15 / nd / nd	0 of 9
GFEHNSYGIS	VIYSDGRRTHYGDSVK	GRAAGTFDS	nd / 3.62 / 4.39	3 of 9 (3.99)
GFTLNSYGIS	VTYSDGRRTFYGDWVK	GRAAGTFDS	nd / nd / nd	0 of 9
GFFLNSMGIS	VIYSDGRRTFYGDSVK	GRAAGTFSS	nd / nd / nd	0 of 9
GSTLNSYGIC	VINSDGRRTFYGDSVK	GRAAGTFDS	4.38 / 3.52 / nd	0 of 9
TFTLNSYGIS	VIYSDGRATFYGDSVK	GRAYGTFDS	4.37 / 5.01 / 4.99	5 of 9 (5.06)
GFTLNHYGIS	VIYSDGRRTFYTFSVK	GRAAGTFDS	nd / nd / nd	0 of 9
GFTLPSYYIS	VIYSDGRRTFYGDSVK	GRMAGTFDS	5.62 / nd / nd	0 of 9
GFTLNSYGIS	VIYSDGRRTFYGDSVK	GTAAGTFDS	nd / 4.53 / 2.68	1 of 9 (3.43)
GYTENSYGIS	VIYSDGRRTFYGDSVK	GRAAGCFDS	4.15 / nd / nd	0 of 9
GFTLYSYGIS	VIYSDGRTTFYGDSVK	GRAADTFDS	5.28 / 3.53 / 5.70	2 of 9 (3.86)
GFKLNSYGIS	VILSDGRRTFYGDSVK	GRANGTFDS	3.89 / nd / nd	0 of 9
GFTLNSYGIS	VIYSDGRRTYYGDMVK	GRAAGTFDS	2.67 / 2.19 / 2.66	1 of 9 (4.18)
GFTLNSYGIS	VIYSDGRRTFYGDEVL	SRAAGTFDS	3.26 / nd / nd	0 of 9
GFTLNSYGIS	VIYSDGRRTFWGDSVH	GRAIGTFDS	nd / nd / nd	0 of 9
GFTLNSYGIS	VIYSKGRRTFYGDSVE	GRAAGTFDS	2.58 / nd / nd	1 of 9 (3.47)
GFTLPSTGIS	VIYSDGRRTFYGDSVT	GRAAGTFDS	nd / nd / nd	2 of 9 (3.06)
GFTLNSYGIS	VIYSDGRRASYGDSVK	GRAAGTFDS	1.60 / 1.76 / 1.49	0 of 9
GFTLNSYGIS	SIYSDGRRTGYGDSVK	GWAAGTFDS	4.76 / nd / nd	0 of 9
TFTLNSYGIS	WIYSDGRRTFYGDSVK	GRAAGTADS	nd / 4.59 / nd	2 of 9 (4.10)
GFTLNSYGIS	VIMSDGRRTFYSDCVK	GRAAGTFDS	nd / 4.44 / nd	5 of 9 (4.06)
GFTLNSYGTS	VVYSDGRRTFYGDSVK	GRAAGTFDL	4.30 / 4.71 / 5.07	5 of 9 (4.83)
WFTLNSYGIS	VIYSDGRRTFYGDQVK	GRAAGTFDG	3.42 / 3.06 / 3.64	2 of 9 (4.72)

From the list, the first 7 with no signal in any replicate:

{"CDR-H1": "GFTLNSYGIS", "CDR-H2": "VIYSDGVRTFYGDSNK", "CDR-H3": "GGAAGTFDS", "log10 Kd, replicates": "nd / nd / nd", "control signals": "0 of 9"}
{"CDR-H1": "GFTLASYGIS", "CDR-H2": "VIYSDIRRTFYFDSVK", "CDR-H3": "GRAAGTFDS", "log10 Kd, replicates": "nd / nd / nd", "control signals": "0 of 9"}
{"CDR-H1": "GTTLNSYGIS", "CDR-H2": "VIYSDGRRTFWGDSVY", "CDR-H3": "GRAAGTFDS", "log10 Kd, replicates": "nd / nd / nd", "control signals": "1 of 9 (4.26)"}
{"CDR-H1": "GFTLNSYGIS", "CDR-H2": "VIYSDYRRTFYGDSVK", "CDR-H3": "GRAAGTGDS", "log10 Kd, replicates": "nd / nd / nd", "control signals": "0 of 9"}
{"CDR-H1": "GFTLNSYGIS", "CDR-H2": "VIYSDERRTFYGRSVK", "CDR-H3": "GRAAGTFDS", "log10 Kd, replicates": "nd / nd / nd", "control signals": "1 of 9 (3.10)"}
{"CDR-H1": "WFTLNSYGIS", "CDR-H2": "VMYSDGRRTFYGDSVK", "CDR-H3": "GRAAYTFDS", "log10 Kd, replicates": "nd / nd / nd", "control signals": "0 of 9"}
{"CDR-H1": "GFTLNSTGHS", "CDR-H2": "VIYSDGRRTFYGDSVK", "CDR-H3": "CRAAGTFDS", "log10 Kd, replicates": "nd / nd / nd", "control signals": "0 of 9"}

From the AlphaSeq antibody data of Engelhart et al. 2022 (doi:10.1038/s41597-022-01779-4), copy in the FLAb collection.